Data as given in publication PMC12409883 (Journal of Medicinal Chemistry, 2025).

Columns and labels:
BALBc/J mice [1] = assay: In vivo scotopic ERG 2 h after photobleach, oral gavage dosing; parameters: species or system mouse; conditions: 10 mg/kg oral gavage, photobleach after 30 min, 2 h in the dark
Abca4–/–Rdh8–/– mice = assay: Photic retinal damage in Abca4–/–Rdh8–/– mice; format: in vivo, mouse; conditions: 50 mg/kg oral versus 10 mg/kg IP
BALBc/J mice [2] = assay: In vivo ERG measurement of rod dark adaptation after photobleach, IP dosing; parameters: species or system mouse; conditions: 10 mg/kg single IP, after 8 h of dark adaptation

| Structure (SMILES) | scotopic ERG b-wave amplitude relative to vehicle treatment (BALBc/J mice [1]) | efficacy of oral treatment on ONL thickness relative to the IP control (Abca4–/–Rdh8–/– mice) | a- and b-wave amplitudes recovered, relative to the vehicle group (BALBc/J mice [2]) |
| --- | --- | --- | --- |
| CCCC(CCC)C(=O)Oc1cccc(C(O)CCN)c1.O=CO (stereo not drawn) [Compound 7, 3-(3-Amino-1-hydroxypropyl)phenyl 2-propylpentanoate formate] | ~50% | less than 50% |  |
| CCC(CC)C(=O)Oc1cccc(C(O)CCN)c1.O=CO (stereo not drawn) [Compound 6, 3-(3-Amino-1-hydroxypropyl)phenyl 2-ethylbutanoate formate] |  |  | ~80% |
